Source: PubChem BioAssay
Compounds with a hit are over-represented: about 2.1% of the library has one in this group of screens.
NR1D1 modulator: modulators of Rev-erb alpha DNA binding, primary screen, biochemical, FITC-DNA, fluorescence polarization, uHTS; Nuclear receptor subfamily 1 group D member 1 (Homo sapiens), P20393; Rev-erbα–FITC-DNA binding, 90 min; activity, % at 10 µM; actives 0.79% (n = 370,000);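 active means activity above about 14%, limit read from the data; passing the limit was not always enough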;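 further: 0% = DMSO wells with 35 nM protein and 100% = DMSO wells with 750 nM protein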
SMARCA2 act: SMARCA2 (BRM) function activators, primary screen, cell-based, luminescence, high throughput. actives 1% (n = 370,000). MG213 cells, MMTV-luciferase reporter, dexamethasone, overnight. activation, % at 9.1 µM. AID 652017, 2013; in the data active means activation above about 7.8%;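 further: 0% = vehicle wells and 100% = reference activator wells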
Yeast UUG start: yeast start codon fidelity modulation | S. cerevisiae UUG-firefly luciferase reporter, luminescence/redox ratio | activity score, % at 18.7 µM | 0.13% of 350,000 active | AID 602363;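 active means replicate mean at a twofold rise or more, about +100% in these data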;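 further: firefly luciferase made from a UUG start codon reports start codon fidelity; reporter light over untreated wells divided by growth signal over untreated wells; some hits fall short of that in this replicate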
ERp5 inh: inhibitors of ERp5-driven insulin aggregation, primary screen, biochemical, turbidity, absorbance 650 nm, single point | Protein disulfide-isomerase A6 (Homo sapiens), Q15084 | 90 min | inhibition, % at 9.99 µM | actives 0.05% (n = 350,000) | AID 651711, 2012;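 active means mean replicate inhibition above about 25%, with every replicate also reaching it, limit read from the data, passing the limit was not always enough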
PDI turbidity: inhibitors of human PDI, primary screen, biochemical, turbidity, single point, plate reader; AID 588391, 2011; inhibition, % at 10 µM; actives 0.052% (n = 350,000); Protein disulfide-isomerase (Homo sapiens), P07237; PDI insulin aggregation turbidity, A650, 90 min;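 active means mean inhibition across replicates of 30% or more, whatever share of single replicates reach that level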
GSIS activator: GLuc luminescence reporter in INS-1E cells, primary screen for activators of glucose-dependent secretion of insulin. INS-1E GLuc reporter insulin secretion, 2-3 h. activation, % at 16.6 µM. actives 0.61% (n = 370,000). AID 743287, 2014;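 active means lowest replicate activation of at least 40%, so every replicate reaches that level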;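 further: 0% = median of neutral control wells and 100% = median of IBMX positive control wells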
SMARCA2 conf: SMARCA2 (BRM) function activators, confirmation, cell-based, luminescence, triplicate | shares compounds with SMARCA2 act | MG213 cells, MMTV-luciferase with dexamethasone, overnight; MG213 cells expressing E1A, Rb sequestered; DMSO wells 0%, reference activator 100% | activation, % at 9.1 µM | actives 30% (n = 3,500) | AID 652260, 2013;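 active means activation above its plate's cutoff, the mean activation of tested wells plus 3 SD, cut at about 7.9% in these data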
VP16 Luc act: GAL4-VP16 luciferase reporter activation, counter-screen for SMARCA2 (BRM) activator project, cell-based, pG5luc, luminescence, high throughput; actives 41% (n = 3,500); shares compounds with SMARCA2 act; activation, % at 9.1 µM; AID 686939, 2013; HEK293 GAL4-VP16 pG5luc reporter; scaled: DMSO wells 0%, SAHA wells 100%;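 active means activation above the solvent-only control well mean plus 3 SD, averaged across control plates, cut at about 5.2% in these data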
* = called active by the depositor; x = no result given.

Molecule | NR1D1 modulator | SMARCA2 act | Yeast UUG start | ERp5 inh | PDI turbidity | GSIS activator | SMARCA2 conf | VP16 Luc act
Cc1noc(C)c1NC(=O)Nc1ccc2c(c1)C(=O)N([C@@H](C)CO)C[C@H](C)[C@@H](CN(C)C(=O)Nc1ccc(C(F)(F)F)cc1)OCCCC[C@H](C)O2 | x | x | 2.1 | -1.4 | x | -5.7 | x | x
C[C@@H]1CCCCO[C@H](CN(C)C(=O)NC2CCCCC2)[C@H](C)CN([C@@H](C)CO)C(=O)c2cc(NC(=O)Cc3ccccc3)ccc2O1 | x | x | -4.4 | -7.8 | x | -28.1 | x | x
N#Cc1ccc(Cn2ccnc2C(=O)Nc2ccccc2)cc1 | 0.5 | -1.3 | x | -6.4 | 9.3 | -7.0 | x | x
Cc1ccc(Cn2ccnc2C(=O)Nc2ccccc2)cc1 | 0.4 | 9.3* | -9.4 | 4.5 | 8.0 | -1.5 | 6.5 | 2.9
Cc1ccccc1C1NS(=O)(=O)N=C1N (stereo not drawn) | 2.3 | 8.0* | -8.0 | x | 5.0 | x | -0.1 | 0.4
O=c1nc(N/N=C/C=C/c2ccccc2)cn[nH]1 | -6.3 | 11.8* | x | 4.1 | -12.5 | 16.6 | 11.6* | 6.7*
O=C(O)c1ccc(N/N=C/C=C/c2ccccc2)cc1 | -1.4 | 8.0* | -17.6 | 3.8 | -3.4 | -7.3 | 4.3 | 17.0*
O=C(CSc1nc2ccccc2s1)N/N=C/c1ccco1 | -0.3 | 8.8* | x | x | -1.1 | 31.8 | 8.9* | 0.2
N#C/C(C(=O)NCc1ccccc1)=C1/N=C(NC(=O)c2ccco2)c2ccccc21 | 5.4 | 10.2* | -4.0 | x | -12.8 | x | 1.5 | 3.0
COc1ccccc1-n1cc(-c2ccccc2)c2c(=S)nc[nH]c21 | 2.8 | 8.4* | -23.0 | 3.0 | 5.1 | 7.8 | 1.1 | 1.4
COc1ccccc1-n1cc(-c2ccccc2)[nH]c1=S | -0.6 | -1.8 | x | 6.2 | -1.1 | 11.2 | x | x
NC(=O)CC1C(=O)N(c2ccccc2)C(=S)N1NC(=O)c1ccc(Br)cc1 (stereo not drawn) | 5.7 | 7.4 | -5.1 | -1.3 | 1.3 | 1.5 | x | x
NC(=O)CC1C(=O)N(c2ccccc2)C(=S)N1NC(=O)c1ccccc1 (stereo not drawn) | 3.7 | 8.0* | -0.9 | 3.1 | 4.4 | 24.6 | 7.3 | 2.1
CC1(C(=O)Nc2nc3ccccc3s2)CC1(Br)Br (stereo not drawn) | -2.2 | 9.0* | -16.9 | -0.1 | 7.2 | 6.7 | 6.4 | 5.2*
NC(=S)Nc1nc2ccccc2s1 | 9.2 | 15.6* | x | 5.0 | -1.2 | -2.2 | 17.3* | 5.5*
C[C@H]1CN([C@@H](C)CO)C(=O)c2cccc(NC(=O)c3cnccn3)c2O[C@H]1CN(C)S(=O)(=O)c1ccc(Cl)cc1 | x | x | 12.6 | x | x | 1.4 | x | x
c1ccc2c(c1)COc1c3ncccc3nn1-2 | 5.3 | 13.1* | -22.4 | -7.0 | -2.0 | 4.7 | 8.2* | 8.4*
CCN(CC)c1c(C)nc2ccc(C(=O)N3CCN(C(=O)c4ccco4)CC3)cn12 | 0.3 | 9.4* | -9.6 | 1.9 | 6.4 | 5.0 | -1.3 | -0.4
CC(=O)Nc1ccc(CN(C)c2c(C)nc3ccc(C(=O)N4CCN(C(=O)c5ccco5)CC4)cn23)cc1 | -5.0 | 1.1 | -24.8 | -3.7 | 0.9 | 2.5 | x | x
C[C@@H]1CN([C@H](C)CO)C(=O)c2cc(C#Cc3cccnc3)cnc2O[C@@H]1CN(C)Cc1ccccc1 | x | x | -4.3 | -0.2 | x | 5.0 | x | x
COc1ccc(-c2ccc([C@H]3[C@@H](CO)N4C(=O)CNC[C@@H]34)cc2)cc1 | x | x | x | 17.4 | x | -9.5 | x | x
CC(C)c1ccc(N(C(=O)c2ccco2)C(C(=O)NC2CCCC2)c2ccncc2)cc1 (stereo not drawn) | -6.1 | 8.0* | -21.4 | 0.8 | 6.8 | -13.0 | 3.0 | 2.5
CCC(C)c1ccc(N(C(=O)c2ccco2)C(C(=O)NC2CCCC2)c2cccnc2)cc1 (stereo not drawn) | -1.2 | 8.1* | x | -0.6 | 2.8 | -36.3 | 3.8 | 5.2*
CCc1ccc(N(C(=O)c2ccco2)C(C(=O)NC2CCCC2)c2cccnc2)cc1 (stereo not drawn) | -2.6 | -3.2 | x | 0.1 | 0.9 | -16.6 | x | x
Cc1cccc(-c2ccc([C@@H]3[C@@H](CO)N4C(=O)CN(C(=O)c5cccnc5)C[C@H]34)cc2)c1 | x | x | x | -7.2 | x | 7.8 | x | x
COCCNC(=O)C1(C)C=CC2(CCCCC2)N1C(=O)c1ccccc1 (stereo not drawn) | 1.3 | 0.8 | -10.6 | -1.9 | 8.7 | 4.0 | x | x
CC1(C(=O)NCCN2CCOCC2)C=CC2(CCCCC2)N1C(=O)c1ccccc1 (stereo not drawn) | -2.8 | 8.7* | -9.2 | 11.1 | 1.1 | 5.2 | 3.0 | 2.1
CNC[C@@H]1OCCCC[C@H](C)Oc2ccc(N(C)C)cc2C(=O)N([C@@H](C)CO)C[C@@H]1C | x | x | x | x | x | 24.8 | x | x
C[C@H]1CCCCO[C@@H](CN(C)Cc2ccncc2)[C@@H](C)CN([C@@H](C)CO)C(=O)c2cc(NS(=O)(=O)c3ccc(F)cc3)ccc2O1 | x | x | -7.1 | -3.2 | x | -19.1 | x | x
Cc1ccnc2nc(C(=O)Nc3nc4ccccc4s3)nn12 | 0.1 | 10.9* | -35.3 | 3.0 | 3.8 | 7.1 | 7.5 | 11.2*

Compound profiles, from the list above. Order of values: NR1D1 modulator | SMARCA2 act | Yeast UUG start | ERp5 inh | PDI turbidity | GSIS activator | SMARCA2 conf | VP16 Luc act
`CCc1ccc(N(C(=O)c2ccco2)C(C(=O)NC2CCCC2)c2cccnc2)cc1` (stereo not drawn) across the screens: -2.6 | -3.2 | x | 0.1 | 0.9 | -16.6 | x | x
`NC(=O)CC1C(=O)N(c2ccccc2)C(=S)N1NC(=O)c1ccccc1` (stereo not drawn) across the screens: 3.7 | 8.0* | -0.9 | 3.1 | 4.4 | 24.6 | 7.3 | 2.1
`Cc1ccccc1C1NS(=O)(=O)N=C1N` (stereo not drawn) across the screens: 2.3 | 8.0* | -8.0 | x | 5.0 | x | -0.1 | 0.4
`Cc1ccc(Cn2ccnc2C(=O)Nc2ccccc2)cc1` across the screens: 0.4 | 9.3* | -9.4 | 4.5 | 8.0 | -1.5 | 6.5 | 2.9
`NC(=O)CC1C(=O)N(c2ccccc2)C(=S)N1NC(=O)c1ccc(Br)cc1` (stereo not drawn) across the screens: 5.7 | 7.4 | -5.1 | -1.3 | 1.3 | 1.5 | x | x

(continued)
Molecule | NR1D1 modulator | SMARCA2 act | Yeast UUG start | ERp5 inh | PDI turbidity | GSIS activator | SMARCA2 conf | VP16 Luc act
COc1ccc(-c2nc(NC(=O)c3nc4nccc(C)n4n3)sc2C)cc1 | -1.1 | -2.7 | -34.0 | 5.8 | 2.7 | 3.2 | x | x
Cc1ccnc2nc(C(=O)Nc3nnc(CC(C)C)s3)nn12 | -2.3 | 2.2 | 0.4 | x | -0.9 | 8.6 | x | x
Cc1csc(NC(=O)c2nc3nccc(C)n3n2)n1 | 4.6 | 8.6* | -23.6 | x | -0.9 | x | 3.7 | 4.2
COc1ccc2c(=O)c3ccccc3oc2c1 | 0.4 | 4.4 | -6.5 | 1.9 | x | x | x | x
COc1ccc2sc3cccc(NCCN(C)C)c3c(=O)c2c1 | -1.1 | 29.3* | x | 0.5 | x | 2.2 | 40.2* | 3.5
COc1ccc2oc3cc(NCCN(C)C)ccc3c(=O)c2c1 | -5.2 | 20.8* | -30.6 | -5.9 | x | 4.2 | 37.7* | 13.5*
COc1cccc2sc3ccc(NCCC4CCCN4C)cc3c(=O)c12 (stereo not drawn) | -16.2 | -0.4 | 6.9 | -4.8 | -1.8 | x | x | x
CN(C)CCNc1ccc(CO)c2sc3ccc(O)cc3c(=O)c12 | 11.1 | 13.8* | x | -7.8 | 5.6 | x | 4.6 | 11.1*
CNc1cc(C)nc(N2CCOCC2)n1 | -2.2 | 8.7* | x | 2.5 | 0.8 | 8.9 | -1.1 | 0.7
